From US20150160193A1, “TUMOR CELL ISOLATION/PURIFICATION PROCESS AND METHODS FOR USE THEREOF” (DIATECH ONCOLOGY, priority 2012, published 2015)

Tested on: Purified breast cancer cells from 67 patient (Pt) biopsies
Assay: MiCK assay of drug-induced apoptosis, breast cancer specimens
Type: cell-based, human
Details: patient pairwise comparison, listed as docetaxel
Method: Apoptosis(KU)=(VmaxDrug Candidate Treated−VmaxControl)×60×X/(ODcontrol−ODblank)
Within 24 to 48 hours of collection, the specimen was minced, digested with 0.25% trypsin and 0.08% DNase for 1-2 hours at 37 C.°, and then filtered through a 100 micrometer cell strainer. When necessary, non-viable cells were removed by density gradient centrifugation. The cell suspension was then incubated for 30 min at 37° C. in a tissue culture flask to remove macrophages by adherence. For epithelial tumors lymphocytes were removed by 30 minute incubation with CD2 antibody conjugated magnetic beads for T lymphocytes and CD19 antibody conjugated magnetic beads for B lymphocytes. Remaining macrophages were removed, if necessary, using CD14 antibody conjugated magnetic beads. The final cell suspension was plated into a 96-well half-area plate, 120 microliter aliquot per well. The plate was incubated overnight at 37° C. with 5% carbon dioxide humidified atmosphere. 5×10^4 to 1.5×10^5 cells were seeded per well depending on the cell volume to give adequate well-bottom coverage. […]

Compound: CC(=O)O[C@@]12CO[C@@H]1C[C@H](O)[C@@]1(C)C(=O)[C@H](O)C3=C(C)[C@@H](OC(=O)[C@H](O)[C@@H](NC(=O)OC(C)(C)C)c4ccccc4)C[C@@](O)([C@@H](OC(=O)c4ccccc4)[C@H]21)C3(C)C [Taxotere, docetaxel]
- Mean Difference (95% CI) of KU vs Abraxane (drug minus Abraxane): APOP>nab-paclitaxel
- Mean Difference (95% CI) of KU vs Taxol (drug minus Taxol): not different
